Like-named read-outs stand apart in the source and are kept apart here.
Tests used:
[1] = biological target: T1, kinases (KINOMEscan panel) (Homo sapiens, UniProt Q15418); format: binding
[2] = biological target: T2, kinases (KINOMEscan panel) (Homo sapiens, UniProt Q9UK32); format: binding
[3] = biological target: T3, kinases (KINOMEscan panel) (Homo sapiens, UniProt Q15349); format: binding
[4] = biological target: T4, kinases (KINOMEscan panel) (Homo sapiens, UniProt P51812); format: binding
[5] = biological target: T1, kinases (KINOMEscan panel); design: method as in original PKIS2 published data; details: cited from earlier work
[6] = biological target: T2, kinases (KINOMEscan panel); design: method as in original PKIS2 published data; details: cited from earlier work
[7] = biological target: T3, kinases (KINOMEscan panel); design: method as in original PKIS2 published data; details: cited from earlier work
[8] = biological target: T4, kinases (KINOMEscan panel); design: method as in original PKIS2 published data; details: cited from earlier work
TGFBR1 = biological target: T5, TGFBR1 (Homo sapiens, UniProt P36897); assay: TGFBR1 binding KD (Table S3)
T5 sequence (P36897 34-503): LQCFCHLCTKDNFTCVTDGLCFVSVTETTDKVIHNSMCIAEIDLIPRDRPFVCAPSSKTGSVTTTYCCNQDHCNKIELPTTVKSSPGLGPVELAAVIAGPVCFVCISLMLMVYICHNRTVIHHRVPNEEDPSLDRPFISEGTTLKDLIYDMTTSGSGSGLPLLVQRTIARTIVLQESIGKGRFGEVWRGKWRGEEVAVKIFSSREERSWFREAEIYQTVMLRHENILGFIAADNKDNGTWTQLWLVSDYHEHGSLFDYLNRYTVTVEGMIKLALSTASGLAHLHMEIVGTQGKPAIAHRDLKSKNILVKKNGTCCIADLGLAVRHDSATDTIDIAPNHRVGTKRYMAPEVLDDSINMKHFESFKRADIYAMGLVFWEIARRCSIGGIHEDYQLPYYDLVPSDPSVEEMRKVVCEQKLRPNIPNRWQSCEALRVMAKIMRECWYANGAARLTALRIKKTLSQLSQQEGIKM

Amino acid sequences for entries named in this document (tags omitted).
UniProt Q15418, whole entry: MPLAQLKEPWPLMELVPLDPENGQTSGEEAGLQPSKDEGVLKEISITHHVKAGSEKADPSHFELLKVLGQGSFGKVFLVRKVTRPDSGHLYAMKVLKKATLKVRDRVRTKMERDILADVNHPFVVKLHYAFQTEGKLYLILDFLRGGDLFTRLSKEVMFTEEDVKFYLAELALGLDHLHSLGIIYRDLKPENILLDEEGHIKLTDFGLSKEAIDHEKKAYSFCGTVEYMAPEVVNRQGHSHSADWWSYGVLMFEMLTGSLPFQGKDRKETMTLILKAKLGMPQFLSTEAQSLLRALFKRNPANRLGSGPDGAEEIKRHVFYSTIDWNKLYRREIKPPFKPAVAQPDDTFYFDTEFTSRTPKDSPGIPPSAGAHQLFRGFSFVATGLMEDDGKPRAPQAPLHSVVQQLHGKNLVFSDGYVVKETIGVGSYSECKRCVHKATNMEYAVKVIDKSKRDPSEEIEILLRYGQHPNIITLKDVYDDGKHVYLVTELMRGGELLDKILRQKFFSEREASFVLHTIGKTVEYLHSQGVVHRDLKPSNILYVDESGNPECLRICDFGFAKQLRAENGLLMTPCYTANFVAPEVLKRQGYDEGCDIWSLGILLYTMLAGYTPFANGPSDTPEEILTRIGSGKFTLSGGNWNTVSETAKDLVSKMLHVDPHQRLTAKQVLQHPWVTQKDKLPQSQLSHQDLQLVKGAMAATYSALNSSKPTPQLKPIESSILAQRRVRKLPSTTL
UniProt Q9UK32, whole entry: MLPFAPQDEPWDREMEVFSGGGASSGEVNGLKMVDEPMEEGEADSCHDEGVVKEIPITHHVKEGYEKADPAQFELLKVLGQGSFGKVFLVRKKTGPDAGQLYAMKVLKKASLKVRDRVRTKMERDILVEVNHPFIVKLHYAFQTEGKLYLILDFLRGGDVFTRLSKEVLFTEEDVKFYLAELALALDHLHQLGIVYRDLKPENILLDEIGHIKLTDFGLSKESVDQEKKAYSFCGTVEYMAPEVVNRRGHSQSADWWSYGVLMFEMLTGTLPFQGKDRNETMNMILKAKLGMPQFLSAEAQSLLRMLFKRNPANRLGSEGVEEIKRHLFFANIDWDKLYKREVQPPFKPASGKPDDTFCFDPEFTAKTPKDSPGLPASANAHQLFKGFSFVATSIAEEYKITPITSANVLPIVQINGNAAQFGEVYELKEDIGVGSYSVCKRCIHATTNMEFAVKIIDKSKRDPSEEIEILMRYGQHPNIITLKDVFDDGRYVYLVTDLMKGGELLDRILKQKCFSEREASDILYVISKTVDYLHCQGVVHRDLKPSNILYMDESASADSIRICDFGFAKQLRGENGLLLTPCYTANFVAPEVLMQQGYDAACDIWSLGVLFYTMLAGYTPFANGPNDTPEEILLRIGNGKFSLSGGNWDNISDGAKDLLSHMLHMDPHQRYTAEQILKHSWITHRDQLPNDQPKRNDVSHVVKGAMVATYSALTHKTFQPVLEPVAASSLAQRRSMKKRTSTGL
UniProt Q15349, whole entry: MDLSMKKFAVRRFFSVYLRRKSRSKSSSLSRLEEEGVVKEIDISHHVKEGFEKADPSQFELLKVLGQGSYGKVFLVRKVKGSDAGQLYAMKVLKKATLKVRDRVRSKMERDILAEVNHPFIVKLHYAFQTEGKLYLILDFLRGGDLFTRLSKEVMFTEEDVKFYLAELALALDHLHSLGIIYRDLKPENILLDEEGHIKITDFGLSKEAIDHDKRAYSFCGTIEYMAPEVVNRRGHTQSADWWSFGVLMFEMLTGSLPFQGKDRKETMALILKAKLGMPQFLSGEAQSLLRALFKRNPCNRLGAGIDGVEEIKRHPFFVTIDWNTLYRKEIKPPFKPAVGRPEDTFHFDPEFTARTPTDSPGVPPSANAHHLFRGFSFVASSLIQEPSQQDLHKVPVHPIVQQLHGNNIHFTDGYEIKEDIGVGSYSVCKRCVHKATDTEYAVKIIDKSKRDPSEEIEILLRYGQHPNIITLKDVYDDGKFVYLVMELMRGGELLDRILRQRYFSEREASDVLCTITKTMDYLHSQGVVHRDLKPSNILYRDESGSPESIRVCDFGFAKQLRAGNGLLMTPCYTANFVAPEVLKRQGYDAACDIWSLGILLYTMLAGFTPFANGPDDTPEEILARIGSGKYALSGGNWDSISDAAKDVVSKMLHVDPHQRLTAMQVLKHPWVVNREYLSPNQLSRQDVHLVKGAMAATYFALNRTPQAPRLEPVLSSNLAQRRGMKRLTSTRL
UniProt P51812, whole entry: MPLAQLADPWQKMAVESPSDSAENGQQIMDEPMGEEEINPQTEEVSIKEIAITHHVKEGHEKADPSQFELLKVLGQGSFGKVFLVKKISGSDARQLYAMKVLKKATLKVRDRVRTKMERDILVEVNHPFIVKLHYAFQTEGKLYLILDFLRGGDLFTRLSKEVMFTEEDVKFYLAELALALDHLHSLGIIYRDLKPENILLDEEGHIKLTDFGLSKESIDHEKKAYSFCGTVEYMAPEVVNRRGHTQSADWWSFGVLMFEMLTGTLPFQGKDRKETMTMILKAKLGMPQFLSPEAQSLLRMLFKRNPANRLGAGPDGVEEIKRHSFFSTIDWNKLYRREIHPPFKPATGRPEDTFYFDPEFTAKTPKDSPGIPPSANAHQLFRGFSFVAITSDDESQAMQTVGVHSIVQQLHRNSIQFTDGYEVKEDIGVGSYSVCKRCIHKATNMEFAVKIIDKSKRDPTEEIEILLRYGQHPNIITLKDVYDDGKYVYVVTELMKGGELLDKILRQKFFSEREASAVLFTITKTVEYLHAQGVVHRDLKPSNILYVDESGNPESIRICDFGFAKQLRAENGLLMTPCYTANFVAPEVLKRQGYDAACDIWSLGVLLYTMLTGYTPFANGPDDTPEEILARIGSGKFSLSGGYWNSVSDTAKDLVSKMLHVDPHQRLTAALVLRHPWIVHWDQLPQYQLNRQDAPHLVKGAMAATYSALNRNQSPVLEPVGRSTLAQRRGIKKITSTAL
UniProt Q15759, whole entry: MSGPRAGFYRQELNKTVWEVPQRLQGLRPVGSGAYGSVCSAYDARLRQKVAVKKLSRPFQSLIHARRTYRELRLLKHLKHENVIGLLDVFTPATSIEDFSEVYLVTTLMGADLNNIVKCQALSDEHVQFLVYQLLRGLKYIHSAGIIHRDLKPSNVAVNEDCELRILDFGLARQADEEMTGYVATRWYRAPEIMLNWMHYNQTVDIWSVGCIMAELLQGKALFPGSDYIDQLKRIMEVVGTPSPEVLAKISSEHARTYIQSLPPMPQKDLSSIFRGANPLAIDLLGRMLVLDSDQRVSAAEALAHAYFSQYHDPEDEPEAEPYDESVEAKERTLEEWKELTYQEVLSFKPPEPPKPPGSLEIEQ
UniProt Q16539, whole entry: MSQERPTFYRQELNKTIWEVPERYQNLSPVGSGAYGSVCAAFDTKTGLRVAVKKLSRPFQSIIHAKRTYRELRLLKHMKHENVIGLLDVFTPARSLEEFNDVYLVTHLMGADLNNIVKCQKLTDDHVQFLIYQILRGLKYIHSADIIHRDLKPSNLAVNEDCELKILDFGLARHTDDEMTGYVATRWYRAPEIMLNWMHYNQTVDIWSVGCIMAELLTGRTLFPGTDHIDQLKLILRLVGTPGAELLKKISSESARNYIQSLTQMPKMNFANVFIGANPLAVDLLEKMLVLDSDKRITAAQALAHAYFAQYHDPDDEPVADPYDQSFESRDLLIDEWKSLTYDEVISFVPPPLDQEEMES

[9] = biological target: cellular kinases of SH-SY5Y cells (Homo sapiens, UniProt Q15759); format: binding
[10] = biological target: T6, cellular kinases of SH-SY5Y cells (Homo sapiens, UniProt P52564); format: binding
T6 sequence (P52564 1-334): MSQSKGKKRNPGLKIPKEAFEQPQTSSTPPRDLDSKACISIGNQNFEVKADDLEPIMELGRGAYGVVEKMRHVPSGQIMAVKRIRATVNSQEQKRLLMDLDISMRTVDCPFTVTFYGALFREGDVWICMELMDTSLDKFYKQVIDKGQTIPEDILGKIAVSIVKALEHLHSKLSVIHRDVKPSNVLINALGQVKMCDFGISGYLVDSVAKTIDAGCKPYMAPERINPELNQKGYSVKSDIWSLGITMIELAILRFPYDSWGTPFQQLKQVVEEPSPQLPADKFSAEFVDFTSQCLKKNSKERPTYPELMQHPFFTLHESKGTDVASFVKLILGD

[11] = biological target: cellular kinases of SH-SY5Y cells (Homo sapiens, UniProt Q16539); format: binding
[12] = biological target: cellular kinases of SH-SY5Y cells (Homo sapiens, UniProt P24941); format: binding

Row | Compound | KINOMEscan RPS6KA1/RSK1(Kin.Dom.1-N-terminal) [1] | KINOMEscan RPS6KA1/RSK1(Kin.Dom.2-C-terminal) [1] | KINOMEscan RPS6KA6/RSK4(Kin.Dom.1-N-terminal) [2] | KINOMEscan RPS6KA6/RSK4(Kin.Dom.2-C-terminal) [2] | KINOMEscan RPS6KA2/RSK3(Kin.Dom.1-N-terminal) [3] | KINOMEscan RPS6KA2/RSK3(Kin.Dom.2-C-terminal) [3] | KINOMEscan RPS6KA3/RSK2(Kin.Dom.1-N-terminal) [4] | KINOMEscan RPS6KA3/RSK2(Kin.Dom.2-C-terminal) [4] | also measured
1 | Cc1cccc(-c2nc(Nc3ccc4scnc4c3)c3ccccc3n2)n1 [NK163] | 14 | 2 | 0 | 0 | 6 | 28 | 26 | 15 | –
2 | Cc1cccc(-c2nc(Nc3ccc4c(cnn4C)c3)c3ccccc3n2)n1 [NK166] | – | – | – | – | – | – | – | – | KINOMEscan RPS6KA1/RSK1(Kin.Dom.1-N-terminal) [5]: 32; KINOMEscan RPS6KA1/RSK1(Kin.Dom.2-C-terminal) [5]: 0; KINOMEscan RPS6KA6/RSK4(Kin.Dom.1-N-terminal) [6]: 8; KINOMEscan RPS6KA6/RSK4(Kin.Dom.2-C-terminal) [6]: 0; KINOMEscan RPS6KA2/RSK3(Kin.Dom.1-N-terminal) [7]: 24; KINOMEscan RPS6KA2/RSK3(Kin.Dom.2-C-terminal) [7]: 0; KINOMEscan RPS6KA3/RSK2(Kin.Dom.1-N-terminal) [8]: 26; KINOMEscan RPS6KA3/RSK2(Kin.Dom.2-C-terminal) [8]: 0
3 | Cc1cccc(-c2nc(Nc3ccc4nn(C)cc4c3)c3ccccc3n2)n1 [NK167] | 20 | 35 | 26 | 5 | 0 | 3 | 0 | 9 | Kd (TGFBR1): > 10 µM
4 | Cc1cccc(-c2nc(Nc3ccc4occc4c3)c3ccccc3n2)n1 [NK168] | 0 | 44 | 0 | 3 | 0 | 21 | 0 | 23 | –
5 | Cc1cccc(-c2nc(Nc3ccc4ncccc4c3)c3ccccc3n2)n1 [NK177] | – | – | – | – | – | – | – | – | KiNativ in-cell binding, MAPK11/p38b [9]: 11.8; KiNativ in-cell binding, MAP2K6 [10]: -46.5; KiNativ in-cell binding, MAPK14/p38a [11]: 7.5; KiNativ in-cell binding, CDK2 [12]: -46.5
6 | Cc1cccc(-c2nc(Nc3ccc4c(c3)nnn4C)c3ccccc3n2)n1 [NK221] | 0 | 60 | 16 | 16 | 1 | 25 | 0 | 27 | –
7 | Cc1cccc(-c2nc(Nc3ccc4[nH]nnc4c3)c3ccccc3n2)n1 [NK224] | – | – | – | – | – | – | – | – | KINOMEscan RPS6KA1/RSK1(Kin.Dom.1-N-terminal) [5]: 0; KINOMEscan RPS6KA1/RSK1(Kin.Dom.2-C-terminal) [5]: 16; KINOMEscan RPS6KA6/RSK4(Kin.Dom.1-N-terminal) [6]: 0; KINOMEscan RPS6KA6/RSK4(Kin.Dom.2-C-terminal) [6]: 0; KINOMEscan RPS6KA2/RSK3(Kin.Dom.1-N-terminal) [7]: 0; KINOMEscan RPS6KA2/RSK3(Kin.Dom.2-C-terminal) [7]: 12; KINOMEscan RPS6KA3/RSK2(Kin.Dom.1-N-terminal) [8]: 12; KINOMEscan RPS6KA3/RSK2(Kin.Dom.2-C-terminal) [8]: 0

— publication PMC9851200, “Multiparameter phenotypic screening for endogenous TFEB and TFE3 translocation identifies novel chemical series modulating lysosome function” (Autophagy, 2022)
